For the assay, the target named is T1, EGFRvIII (Homo sapiens, UniProt P00533, DELINS30-297G).
T1 construct: expressed in transfected cells; host or cells: U87MG human glioblastoma cells (U87H population), retroviral transduction with pLERNL
The assay can be described thus: Immunoblotting of EGFRvIII phosphorylation after kinase inhibitor treatment of U87H cells. The class given is cell-based. The conditions noted are these: 1 h AG1478 dose escalation after 24-h serum starvation, Western blot.

Take `COc1cc2ncnc(Nc3cccc(Cl)c3)c2cc1OC` [AG1478]: the EGFRvIII phosphorylation levels entry is “dose-dependent decrease”.

Values taken from patent publication US20090042906A1, “METHODS FOR TREATING CANCERS ASSOCIATED WITH CONSTITUTIVE EGFR SIGNALING” (Massachusetts Institute of Technology, priority 2007, published 2009).
